Earlier results in PMC3162996 (Journal of natural products, 2011).

Conditions: Floridian collections of Lyngbya confervoides; ref [6],[7]; cited from earlier work

## grassypeptolide A [compound 3]
  cytotoxicity (in words): cytotoxic

## grassypeptolide B [compound 4]
  cytotoxicity (in words): cytotoxic
